Data as given in ChEMBL document CHEMBL5233237, “Agonist and antagonist ligands of toll-like receptors 7 and 8: Ingenious tools for therapeutic purposes” (Eur J Med Chem, 2020).

Species on record: Homo sapiens
Test: Selectivity ratio of EC50 of TLR8 (unknown origin) to EC50 for TLR7 (unknown origin)

Ratio EC50: 50
SMILES: CCCN(CCC)C(=O)C1=Cc2ccc(-c3ccc(C(=O)N4CCCC4)cc3)cc2N=C(N)C1
